Values quoted from earlier work, collected in article PMC10946813, “Lipophilicity Modulations by Fluorination Correlate with Membrane Partitioning” (Angewandte Chemie (International Ed. in English), 2023).

Conditions: reference value used in the logP determination; no reference given; cited from earlier work

Q: With 2-fluoroethanol as the substance, how does the logP of reference compound read?
A: -0.75
